From patent US20120258482A1, “PCNA METHYLTRANSFERASE” (INDIANA UNIVERSITY RESEARCH AND TECHNOLOGY CORPORATION, priority 2009, published 2012)

System: carboxyl methyltransferase in MCF7 breast cancer cell extracts
Assay: Vapor diffusion assay of SAM-dependent carboxyl methyltransferase activity in cell extracts
Assay type: biochemical, human
Settings: 10 μg added to MCF7 cell extract, [3H-methyl]-SAM
Method: Vapor diffusion assay. The assay was performed basically as previously described (Murray, E. D., Jr. & Clarke, S. J Biol Chem 259, 10722-10732 (1984). MCF7 breast cancer cell extracts were assayed 1-2 h in the presence of [^3H-methyl]-SAM (NEN). Following incubation, extracts were equilibrated with 100 mM NaOH with 2% SDS and spotted onto filter paper folded into an accordion pleat and placed into the neck of a vial above scintillation fluid. ^3H-methanol present in the scintillation fluid was measured the following day (See FIG. 1).
To identify PCNA-dependent carboxyl methyltransferase activity in human cells, breast cancer cell extracts were assayed in the presence of radiolabeled-S-adenosyl-L-methionine (SAM). Methyl esters formed by SAM-dependent methyltransferase activity were hydrolyzed by the addition of base and the liberated radiolabeled methanol was measured by passive diffusion into scintillation fluid (See FIG. 1). Using this approach applicants detected enzymatic methyl esterification of substrates endogenous to the breast cancer cell extracts (FIG. 2A and FIG. 2B).

Substance: recombinant PCNA: purified recombinant proliferating cell nuclear antigen, CBP or 6× His fusion, methyltransferase substrate
- increase in amount of methyl esters detected over background: five
